This is an account of results in PubChem BioAssay AID720704 (The Scripps Research Institute Molecular Screening Center, 2013).

The chains behind the UniProt entries cited, without tags or fusion partners.
UniProt Q01970, whole entry, looked up: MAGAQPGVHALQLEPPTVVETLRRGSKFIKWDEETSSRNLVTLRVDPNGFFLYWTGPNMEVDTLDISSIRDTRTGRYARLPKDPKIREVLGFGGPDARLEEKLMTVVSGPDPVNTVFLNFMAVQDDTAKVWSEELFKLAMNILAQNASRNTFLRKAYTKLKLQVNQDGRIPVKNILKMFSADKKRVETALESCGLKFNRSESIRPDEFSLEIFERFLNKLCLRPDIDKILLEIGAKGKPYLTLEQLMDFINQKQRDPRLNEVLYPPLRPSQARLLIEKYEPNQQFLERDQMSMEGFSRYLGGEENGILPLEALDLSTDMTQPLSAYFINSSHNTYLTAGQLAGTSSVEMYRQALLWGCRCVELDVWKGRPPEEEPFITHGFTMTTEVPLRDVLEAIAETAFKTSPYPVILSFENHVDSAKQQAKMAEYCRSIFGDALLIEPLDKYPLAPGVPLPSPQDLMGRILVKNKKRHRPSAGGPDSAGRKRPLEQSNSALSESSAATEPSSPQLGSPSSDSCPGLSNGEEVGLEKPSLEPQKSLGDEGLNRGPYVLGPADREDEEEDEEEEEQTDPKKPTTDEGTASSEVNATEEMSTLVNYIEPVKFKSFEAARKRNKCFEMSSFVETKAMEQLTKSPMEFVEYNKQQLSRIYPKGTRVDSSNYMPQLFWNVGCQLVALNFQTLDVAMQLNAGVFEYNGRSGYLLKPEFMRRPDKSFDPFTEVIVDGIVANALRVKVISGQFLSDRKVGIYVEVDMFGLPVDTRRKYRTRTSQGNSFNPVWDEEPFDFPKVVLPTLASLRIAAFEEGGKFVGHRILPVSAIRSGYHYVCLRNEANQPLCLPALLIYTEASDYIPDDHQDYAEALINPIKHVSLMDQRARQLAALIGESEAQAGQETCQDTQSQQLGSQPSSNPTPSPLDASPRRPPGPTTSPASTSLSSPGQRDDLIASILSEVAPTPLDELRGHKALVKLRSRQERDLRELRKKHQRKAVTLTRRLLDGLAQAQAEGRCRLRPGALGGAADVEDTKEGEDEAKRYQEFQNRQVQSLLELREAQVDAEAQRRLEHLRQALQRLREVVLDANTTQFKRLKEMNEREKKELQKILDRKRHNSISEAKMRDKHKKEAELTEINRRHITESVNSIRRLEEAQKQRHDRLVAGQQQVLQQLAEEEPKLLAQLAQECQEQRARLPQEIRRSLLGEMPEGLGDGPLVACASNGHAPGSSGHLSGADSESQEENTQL

Only a part is listed here, and it is no random draw. Calls of active or inactive are those of the source. No stated cut-off is given here; in the data, active means inhibition above about 11%; inactive means the rest.

The target of the experiment is 1-phosphatidylinositol 4,5-bisphosphate phosphodiesterase beta-3 (Homo sapiens) (UniProt Q01970). Nature of the experiment: phospholipase C beta3 enzyme inhibition – biochemical, fluorescence, primary screen (AID 720704).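 Further: 0% = median of compound wells on plate and 100% = full blocker control.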 The following applies: Purified PLC-beta3, fluorogenic substrate, at 12.2 µM, stronger effect = higher value.
A word on the inhibition: it is the relative decrease from the control value, in per cent. For `O=P1(Nc2ccc(Br)cn2)COc2ccccc2OC1`, the inhibition was inactive: 1.92%.

In the case of `NS(=O)(=O)c1cccc(NC(=O)COC(=O)C(O)(c2ccccc2)c2ccccc2)c1`, the inhibition was inactive: -2.59%.

Turning to `O=[As](O)(c1cccs1)c1cccs1`, the inhibition was inactive: -4.33%.

Take `Cc1ccc(OCC(=O)OC2CN3CCC2CC3)cc1` (stereo unspecified): the inhibition is inactive: 0.26%.

In the case of `Cc1ccc(S(=O)(=O)N(CCCN)CCCc2c(C)nc(N)[nH]c2=O)cc1`, the inhibition was inactive: 2.92%.

`O=P1(Nc2ncccn2)COc2ccccc2OC1`: the inhibition is inactive: 2.58%.

As for `CC(C)(C)C(=O)NC(Sc1ncccn1)C(Cl)(Cl)Cl` (stereo unspecified), the inhibition is inactive: -2.73%.

For the compound `O=P1(N(CCCl)CCCl)NCCC(C(F)(F)F)O1` (stereo unspecified), the inhibition was inactive: 0.45%.

Consider `Clc1n[nH]nc1-c1nn[nH][15n]1`, for which the inhibition was inactive: 3.34%.

As to `CCOP(=O)(NC(=NC(C)c1ccccc1)NC(C)c1ccccc1)OCC` (stereo unspecified), the inhibition was inactive: 1.25%.

As for `O=P1(Nc2ccccn2)COc2ccccc2OC1`, the inhibition was inactive: 4.54%.

As for `CCC1=CC2Cc3nc4ccc(Cl)cc4c(N)c3C(C1)C2` (stereo unspecified), the inhibition is inactive: -17.3%.

`CN(CCCl)Cc1cc(Cl)c(NC2=NCCN2)c(Cl)c1`: the inhibition is inactive: 3.64%.

As to `CCOP(=O)(Nc1ccc(C)cn1)OCC`, the inhibition is inactive: -6.59%.

Take `CN(C(=O)Cc1ccc(Cl)c(Cl)c1)C1CCCC[C@@H]1N1CCCC1` (stereo partly specified): the inhibition is inactive: 5.19%.

Take `CC(C)/C=N\N=C(\N)N[N+](=O)[O-]`: the inhibition is inactive: -3.85%.

Consider `CN(C(=O)Cc1ccc(Cl)c(Cl)c1)[C@@H]1CCCC[C@H]1N1CCCC1`, for which the inhibition is inactive: -0.9%.

In the case of `CC1(CBr)Cn2c(nc3ccccc3c2=O)S1` (stereo unspecified), the inhibition was inactive: 0.73%.

On to `COc1ccccc1CNC(=O)COC(=O)C(O)(c1ccccc1)c1ccccc1`, for which the inhibition was inactive: 4.31%.

Regarding `O=[As](O)(c1cccc(O)c1)c1cccc(O)c1`, the inhibition was inactive: -2.95%.

As to `Cc1cccc(OCC(=O)OC2CN3CCC2CC3)c1` (stereo unspecified), the inhibition is inactive: 0.4%.

For `O=C(OC1CN2CCC1CC2)c1ccc(Cl)cc1` (stereo unspecified), the inhibition is inactive: -2.84%.

As to `CS(=O)(=O)c1ccc(Cl)c(NC(=O)COC(=O)C(O)(c2ccccc2)c2ccccc2)c1`, the inhibition was inactive: -2.92%.

With `COc1cc(C(=O)NCC2(N3CCOCC3)CCCCC2)cc(Cl)c1OC(C)C`, the inhibition was inactive: 1.45%.

Consider `O=[As](O)(O)c1cccnc1`, for which the inhibition is inactive: -4.29%.

For `CCOP(=O)(Nc1cccc2ccccc12)OCC`, the inhibition is inactive: 2.26%.

On to `COc1cc(C2NCCC3(OCCO3)C2(C)C)cc(OC)c1OC` (stereo unspecified), for which the inhibition was inactive: -0.31%.

Take `Nc1cccc2c([As](=O)(O)O)cccc12`: the inhibition was inactive: -212%.

Consider `Cc1ccc(NCCc2c([N+](=O)[O-])cc([N+](=O)[O-])cc2[N+](=O)[O-])cc1`, for which the inhibition was inactive: 1.51%.

Regarding `CCCOP(=S)(Nc1nc(N)cc(=O)[nH]1)OCCC`, the inhibition is inactive: 0.69%.

Take `Nc1ccccc1[As](=O)(O)c1ccccc1`: the inhibition is inactive: -1.58%.

In the case of `O=C(O)COc1ccc([As](=O)(O)O)cc1[N+](=O)[O-]`, the inhibition is inactive: 0.61%.

For the compound `O=P(Nc1nccs1)(Oc1ccccc1)Oc1ccccc1`, the inhibition is inactive: 0.33%.

As to `CCOP1(=S)c2c(C)nn(CCC#N)c2N=C(c2ccccc2F)N1C` (stereo unspecified), the inhibition is inactive: 4.24%.

Regarding `CCOP1(=S)c2c(C)nn(CCC#N)c2N=C(c2ccc(F)cc2)N1C` (stereo unspecified), the inhibition is inactive: -0.88%.

Take `CN(C(=O)Cc1ccccc1)[C@@H]1CC[C@]2(CCCO2)C[C@H]1N1CCCC1`: the inhibition is inactive: 0.92%.

As for `N#CCCN(C(=O)COC(=O)C(O)(c1ccccc1)c1ccccc1)c1ccc(F)cc1`, the inhibition was inactive: -6.35%.

Regarding `CN(C(=O)Cc1ccc(Cl)c(Cl)c1)[C@H]1CC[C@@]2(CCCO2)C[C@@H]1N1CCCC1`, the inhibition is inactive: 4.25%.

`CN(C)C(=O)c1cc([N+](=O)[O-])cc2c1-c1c(cc([N+](=O)[O-])cc1[N+](=O)[O-])C2=O`: the inhibition is inactive: -2.28%.

For the compound `O=[N+]([O-])c1ccc2c(c1)nnn2O`, the inhibition was inactive: -1.39%.

Consider `NC(=O)Nc1ccc([As](=O)(O)O)cc1`, for which the inhibition was inactive: 3.23%.

Regarding `[N-]=[N+]=NC1CCCCC1NC(=O)c1cc([N+](=O)[O-])cc([N+](=O)[O-])c1` (stereo unspecified), the inhibition is inactive: 1.79%.

For the compound `Cc1ccc(OP(=O)(Nc2ccc([N+](=O)[O-])cn2)Oc2ccc(C)cc2)cc1`, the inhibition was inactive: -6.79%.

On to `Cc1ccc2nc3c(c(C)c2c1)CC(C(Cl)Cl)S3` (stereo unspecified), for which the inhibition is inactive: -42.2%.

Consider `COc1cc(C(=O)NCC2(N3CCOCC3)CCCCC2)ccc1OCC(C)C`, for which the inhibition is inactive: -2.87%.

Take `O=[N+]([O-])c1ccc(-c2cc([N+](=O)[O-])c(O)c([N+](=O)[O-])c2)cc1`: the inhibition was inactive: -5.35%.

Take `O=[As](O)(c1ccc(O)cc1)c1ccccc1O`: the inhibition is inactive: -0.5%.

Take `C[As](=O)(O)c1cccc(C(=O)O)c1`: the inhibition is inactive: -4.26%.

As for `O=C(OC1CN2CCC1CC2)c1cccc2[nH]cnc12` (stereo unspecified), the inhibition is inactive: -10.9%.

Consider `CCN(CC)C(=S)SC(NC=O)C(Cl)(Cl)Cl` (stereo unspecified), for which the inhibition was inactive: -0.66%.

As for `CC(C)NC(=O)NP(=O)(Oc1ccccc1)Oc1ccccc1`, the inhibition was inactive: -0.23%.

For `ClCCSc1nnc(-c2cccnc2)o1`, the inhibition was inactive: 2.61%.

Regarding `CC(C)c1ccc(OP(=O)(Nc2ccccn2)Oc2ccccc2F)cc1` (stereo unspecified), the inhibition was inactive: -9.12%.

As to `COC(=O)C1(C)COP(=O)(N2CCCCCC2)OC1` (stereo unspecified), the inhibition is inactive: 3.32%.

For `O=P1(N(CCCl)CCCl)OCCCN1CCCl` (stereo unspecified), the inhibition is inactive: 2.52%.

For `O=P1(N(CCCl)CCCl)Nc2ccccc2N1`, the inhibition was inactive: -29.9%.

As for `COc1cc(I)ccc1[As](=O)(O)O`, the inhibition is inactive: 0.77%.

`COc1ccc2nc(NP(=O)(c3ccccc3)c3ccccc3)sc2c1`: the inhibition is inactive: 2.7%.

In the case of `Cc1c2c(nc3ccccc13)SC(C(Cl)Cl)C2` (stereo unspecified), the inhibition was inactive: -15.9%.

As to `Cc1cc(=O)[nH]c(N[N+](=O)[O-])n1`, the inhibition was inactive: 0.49%.

`O=C(OC1CN2CCC1CC2)C12CC3CC(CC(C3)C1)C2` (stereo unspecified): the inhibition was inactive: -1.46%.

Turning to `O=[N+]([O-])c1cc(Oc2ccc([N+](=O)[O-])cc2C(F)(F)F)cc([N+](=O)[O-])c1`, the inhibition is inactive: -6.28%.

`COc1ccc(N/C(=N/P(=O)(N2CCOCC2)N2CCOCC2)N2CCOCC2)cc1`: the inhibition is inactive: -6.03%.

Regarding `O=C(O)C(=O)c1ccc(N(CCCl)CCCl)cc1`, the inhibition was inactive: -0.73%.

In the case of `O=C(Nc1ccncc1[N+](=O)[O-])c1ccc([N+](=O)[O-])cc1[N+](=O)[O-]`, the inhibition was inactive: -4.69%.

Take `O=C(COc1ccccc1)OC1CN2CCC1CC2` (stereo unspecified): the inhibition was inactive: -0.8%.

Turning to `COC(=O)C1(C)COP(=O)(N2CCCC2)OC1` (stereo unspecified), the inhibition was inactive: 5.6%.

On to `COP1(=S)c2c(C)nn(CCC#N)c2N=C(c2ccc(F)cc2)N1C` (stereo unspecified), for which the inhibition is inactive: -0.39%.

Regarding `CCC(C)N(CC(C)C)C(=S)SC(NC(C)=O)C(Cl)(Cl)Cl` (stereo unspecified), the inhibition was inactive: -0.43%.

Consider `O=C(OC1CN2CCC1CC2)c1cccc([N+](=O)[O-])c1` (stereo unspecified), for which the inhibition was inactive: 3.77%.

As to `CCOC(=O)c1ccc(NC(=O)C(C)(CCl)SC)cc1` (stereo unspecified), the inhibition is inactive: -1.29%.

In the case of `COP(=O)(OC)N1CC1c1ccccc1` (stereo unspecified), the inhibition is inactive: 3.83%.

For the compound `Cc1cc(SC(NC(=O)c2ccccc2)C(Cl)(Cl)Cl)nc(C(C)C)n1` (stereo unspecified), the inhibition was inactive: -6.39%.

As to `CCCCOc1ccc(C(=O)NCC2(N3CCCCC3)CCCCC2)cc1OC`, the inhibition is inactive: -5.64%.

Take `CCOC(=O)Nc1ccc([As](=O)(O)O)c(O)c1`: the inhibition was inactive: -6.17%.

Turning to `O=C(O)C(O)c1ccc(N(CCCl)CCCl)cc1` (stereo unspecified), the inhibition is inactive: 1.73%.

For `CC1CCNP(=O)(N(CCCl)CCCl)O1` (stereo unspecified), the inhibition was inactive: -3.91%.

`O=P(Nc1ccccn1)(c1cccc2ccccc12)c1cccc2ccccc12`: the inhibition is inactive: -0.85%.

With `Cc1cc(SC(NC=O)C(Cl)(Cl)Cl)ncn1` (stereo unspecified), the inhibition is inactive: 2.63%.

With `O=[N+]([O-])c1ccc(Nc2ccc(Oc3ccc([N+](=O)[O-])cc3[N+](=O)[O-])cc2)c([N+](=O)[O-])c1`, the inhibition was inactive: -1.31%.

`CCOC(=O)Nc1cccc([As](=O)(O)O)c1`: the inhibition was inactive: -13.1%.
